Values of other authors in patent US20080081827A1, “Use of a Pyrazole-Derived Compound that is an Antagonist for Cannabinoid CB1 Receptors, for Treating or Preventing Chronic Bronchitis or Chronic Obstructive Bronchopneumopathy” (SANOFI AVENTIS, priority 2004, published 2008).

System: cannabinoid CB1 receptors
Details: cited from earlier work

For Cc1c(C(=O)NN2CCCCC2)nn(-c2ccc(Cl)cc2Cl)c1-c1ccc(Cl)cc1 [rimonabant, N-piperidino-5-(4-chlorophenyl)-1-(2,4-dichlorophenyl)-4-methylpyrazole-3-carboxamide], the “effect on bronchoconstriction and cough caused by capsaicin” value (administration of capsaicin) is listed as “significantly increases the bronchoconstriction and the cough” and the “bronchomotor effects per se” value (blocking CB1 receptors alone) is listed as “no bronchomotor effects per se”.
